pIC50: −log10 of the molar value.
Target: human α2C receptor (Homo sapiens, UniProt P18825)
Experiment: Antagonism against the adrenoreceptor α2C (luminescence, recombinant CHO cell line)
Conditions: noradrenaline 20 nM, tested up to 10 μM

Protein sequences, listed by entry. Tags and fused reporters are not part of them.
UniProt P18825, whole entry: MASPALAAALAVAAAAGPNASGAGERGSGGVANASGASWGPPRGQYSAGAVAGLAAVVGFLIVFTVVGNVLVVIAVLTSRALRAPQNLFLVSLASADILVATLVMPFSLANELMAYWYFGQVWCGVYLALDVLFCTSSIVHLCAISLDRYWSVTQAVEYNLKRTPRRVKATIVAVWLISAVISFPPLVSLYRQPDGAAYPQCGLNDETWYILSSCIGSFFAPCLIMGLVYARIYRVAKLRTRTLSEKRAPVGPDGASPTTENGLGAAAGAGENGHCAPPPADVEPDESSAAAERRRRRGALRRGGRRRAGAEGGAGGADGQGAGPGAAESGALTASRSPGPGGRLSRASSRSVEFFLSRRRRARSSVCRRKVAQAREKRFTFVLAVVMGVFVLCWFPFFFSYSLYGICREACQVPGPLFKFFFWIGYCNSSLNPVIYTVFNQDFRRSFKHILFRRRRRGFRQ

Question: How did the pIC50 turn out when O=C(c1ccc(C2(O)COC2)cc1)N1CCC(N2CCCC(COC3CCC3)C2)CC1 (stereo not shown) was run?
Answer: The pIC50 was 8.52.
